Experimental data published in PubChem BioAssay AID651704 (Broad Institute, 2012).
This is a selection; strong and weak results do not stand in their true shares. Some tests of the compounds listed are not included; inactive here does not mean inactive elsewhere. The source made the active and inactive calls.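 Rule for the calls: active = every replicate reaching a set inhibition limit, whatever the replicate mean (cut at about 25% in these data); inconclusive = mean inhibition reaches that limit but some replicates miss it; inactive = the rest.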

Protein sequences, listed by entry. Tags and fused reporters are not part of them.
UniProt P42568, whole entry: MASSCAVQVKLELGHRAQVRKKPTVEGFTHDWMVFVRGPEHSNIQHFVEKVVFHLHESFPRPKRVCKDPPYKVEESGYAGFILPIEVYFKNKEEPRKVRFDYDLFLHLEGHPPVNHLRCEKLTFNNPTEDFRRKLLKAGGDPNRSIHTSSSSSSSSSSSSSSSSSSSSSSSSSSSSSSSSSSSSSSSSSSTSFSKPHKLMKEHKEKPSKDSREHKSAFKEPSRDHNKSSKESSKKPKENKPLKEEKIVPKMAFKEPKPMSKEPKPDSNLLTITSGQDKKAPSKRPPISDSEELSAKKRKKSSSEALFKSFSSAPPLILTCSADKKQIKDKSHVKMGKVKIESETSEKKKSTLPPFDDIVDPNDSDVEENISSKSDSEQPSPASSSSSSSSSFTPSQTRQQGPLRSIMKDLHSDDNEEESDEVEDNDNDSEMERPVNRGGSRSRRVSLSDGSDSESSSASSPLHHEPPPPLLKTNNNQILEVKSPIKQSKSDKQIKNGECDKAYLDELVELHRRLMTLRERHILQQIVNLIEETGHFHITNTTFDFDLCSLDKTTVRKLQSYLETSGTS

biological target: Protein AF-9 (Homo sapiens) (UniProt P42568); experiment: MLL-AF4/AF9 protein interaction blockers – biochemical, AlphaScreen, biotin-AF4 peptide, FLAG-AF9, single point, primary screen (AID 651704); conditions: biotin-AF4 peptide binding to FLAG-AF9, at 10 µM, active compounds read high;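 note: 0% = plate neutral control median and 100% = total signal loss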

Compound | inhibition
C=C(C)C#CC(O)(C(=O)OC1CCN(C)CC1)c1ccccc1 (configuration not stated) | inactive: -2.92%
COc1ccc(Br)c(C(=O)NCC2(N3CCCCC3)CCCCC2)c1 | inactive: -2.84%
CC(C)Oc1ccc(C(=O)NCC2(N(C)C)CCCCC2)cc1 | inactive: -2.38%
O=C(OCCN1CCCC1)C(O)(c1ccccc1)c1ccccc1 | inactive: -2.56%
CN(C)C1(CNC(=O)c2ccc(Br)cc2)CCCCC1 | inactive: 0.312%
COc1cc(C(=O)NCC2(N(C)C)CCCCC2)c([N+](=O)[O-])cc1OC | inactive: -1%
COc1cccc(C(=O)NCC2(N3CCCCC3)CCCCC2)c1 | inactive: -1.21%
COc1ccc(Cl)cc1C(=O)NCC1(N(C)C)CCCCC1 | inactive: -1.1%
O=C(NCC1(N2CCCCC2)CCCCC1)c1cccc(Cl)c1 | inactive: -0.899%
Cc1ccccc1C(=O)NCC1(N2CCCCC2)CCCCC1 | inactive: 3.72%
CN(C)C1CCCC1OC(=O)C(O)(c1ccccc1)c1ccccc1 (configuration not stated) | inactive: 4.74%
CN(C)c1ccc(C(=O)NCC2(N(C)C)CCCCC2)cc1 | inactive: -0.768%
C=CCN1CCN(CCOC(=O)C(O)(c2ccccc2)c2ccccc2)CC1 | inactive: 0%
O=C(NCC1(N2CCCCC2)CCCCC1)c1cc(F)c(F)cc1Cl | inactive: 2.19%
COc1ccc(C(=O)NCC2(N(C)C)CCCCC2)cc1 | inactive: -2.83%
Cc1cc(C(=O)NCC2(N3CCCCC3)CCCCC2)ccc1[N+](=O)[O-] | inactive: 1.29%
O=C(NCC1(N2CCCCC2)CCCCC1)c1cccc(Br)c1 | inactive: -0.663%
O=C(NCC1(N2CCCCC2)CCCCC1)c1cc([N+](=O)[O-])ccc1Cl | inactive: 2.83%
CN1[C@@H]2CC[C@H]1CC(OC(=O)C(O)(c1ccccc1)c1ccccc1)C2 (some centres not stated) | inactive: 2.38%
CCN(CC)CC(C)C(C)OC(=O)C(O)(c1ccccc1)c1ccccc1 (configuration not stated) | inactive: -4.21%
COc1cc(SC)ccc1C(=O)NCC1(N(C)C)CCCCC1 | inactive: 1.3%
Cc1ccc(C(=O)NCC2(N3CCCCC3)CCCCC2)cc1 | inactive: -27.8%
